The target of this assay is Glucagon-like peptide 1 receptor (Homo sapiens, UniProt P43220). Kind of assay: Agonist activity at human GLP1R expressed in frozen cells assessed as increase in cAMP production measured after 1 hr by HitHunter luminescence assay. Format: functional, cell-based. (Changes in cAMP serve as a functional read-out for many G protein-coupled receptors.)

Sequences of proteins named here, by UniProt entry; tags and fusion partners are left off.
UniProt P43220, whole entry: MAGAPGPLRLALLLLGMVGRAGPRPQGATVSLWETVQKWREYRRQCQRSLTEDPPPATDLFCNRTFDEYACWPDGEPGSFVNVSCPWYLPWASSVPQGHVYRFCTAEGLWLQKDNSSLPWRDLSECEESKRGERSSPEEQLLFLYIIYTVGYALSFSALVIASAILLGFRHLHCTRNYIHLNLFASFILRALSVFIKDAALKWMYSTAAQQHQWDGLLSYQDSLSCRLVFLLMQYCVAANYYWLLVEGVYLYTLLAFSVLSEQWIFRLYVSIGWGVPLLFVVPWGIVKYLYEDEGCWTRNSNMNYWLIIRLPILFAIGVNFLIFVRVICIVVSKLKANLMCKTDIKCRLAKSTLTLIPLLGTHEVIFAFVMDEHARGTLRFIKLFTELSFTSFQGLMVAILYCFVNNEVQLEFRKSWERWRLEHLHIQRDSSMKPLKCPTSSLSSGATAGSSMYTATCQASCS

In the case of GLUCAGON, the EC50 worked out at 0.057 nM.

Usually EC50 stands for the concentration at which the effect is half-maximal.

Values taken from ChEMBL document CHEMBL5126614, “Discovery of MK-1462: GLP-1 and Glucagon Receptor Dual Agonist for the Treatment of Obesity and Diabetes” (ACS Med Chem Lett, 2022).
